These results are taken from US7645449B2, “Sensitizing cells for apoptosis by selectively blocking cytokines” (priority 2003, dated 2010).

The test system of experiment [1] is LNCaP prostate cancer cells. Briefly: MTS viability of LNCaP cells: chemotherapy- and anti-CD95-induced apoptosis. Type of experiment: cell-based, human. Here is the method: (§1) Therefore, it appears that IL-4 is able to exert a significant effect on survival and growth of tumor cells, including a faster expansion of cells that survive chemotherapy treatment.
(§2) Human LNCAP prostate cancer cell line and human MDA-MB-231 breast cancer cell line were obtained from the American Type Culture Collection (ATCC, Manassas, Va.). Human RT112 bladder carcinoma cell line was kindly provided by Dr. M. Cippitelli (Regina Elena Cancer Institute, Rome, Italy). Cells were grown in RPMI 1640 (Life Technologies Inc., Grand Island, N.Y.) containing 10% heat inactivated fetal bovine serum supplemented with L-Glutamine 2 mM and 100 units/ml Penicillin-Streptomycin. […]
(§3) Cell viability was determined using the CellTiter 96® AQueous One Solution Cell Proliferation Assay (Promega, Madison, Wis.), according to the manufacturer's instructions. The assay is based on reduction of 3-(4,5-dimethylthiazol-2-yl)-5-(3-carboxymethoxyphenyl)-2-(4-sulfophenyl)-2H-tetrazolium, inner salt (MTS) to a colored formazan product that is measured spectrophotometrically. […] After 3 hours of incubation at 37° C. with the MTS reagent, the plates were read on a Multilabel Counter (Victor2, Wallac, Perkin-Ehmer Inc., Norwalk, Conn.) and dye absorbance was measured at 490 nm.
(§4) The percentage of apoptotic cells was derived from the percentage of viable cells that was directly calculated from the values of the MTS assay. […]

Experiment [2] deals with MDA-MB-231 breast cancer cells. In words: MTS viability of MDA-MB-231 cells: chemotherapy- and anti-CD95-induced apoptosis. Type of experiment: cell-based, human. How it is done:
as §1, §2, §3, §4

[3] abbreviates: cytokine pretreatment, 30 ng/ml anti-CD95 agonistic antibody.

Regarding “IL-2: human recombinant IL-2, control cytokine”, the “anti-CD95-induced apoptosis of LNCaP cells” value in experiment [1] (setting [3]) is “did not exert any protective effect”. For the same substance, in experiment [1] (two days cytokine pretreatment (20 ng/ml), 300 ng/ml cisplatin or 1 μM vincristine), the “drug-induced death of LNCaP cells” value is listed as “underwent apoptosis in response to chemotherapeutic agents”. Also, in experiment [2] (setting [3]), the “anti-CD95-induced apoptosis of MDA-MB-231 cells” value is recorded as “did not exert any protective effect”. In addition, the “drug-induced death of MDA-MB-231 cells” value in experiment [2] (two days cytokine pretreatment (20 ng/ml), 300 ng/ml cisplatin or 5 μM daunorubicin) was “underwent apoptosis in response to chemotherapeutic agents”.
